{
  "source": "paper doi:10.1101/2025.01.31.636011",
  "about": "“Discovery of a distinct BAM complex in the Bacteroidetes” (bioRxiv, 2025)",
  "target": "T1, BtBamA (Bt3725) with an N-terminal His7 tag (Bacteroides thetaiotaomicron, UniProt Q8A1E1 20-885)",
  "T1 construct": "also called BtBamAhis; BamAhis",
  "T1 sequence (looked up)": "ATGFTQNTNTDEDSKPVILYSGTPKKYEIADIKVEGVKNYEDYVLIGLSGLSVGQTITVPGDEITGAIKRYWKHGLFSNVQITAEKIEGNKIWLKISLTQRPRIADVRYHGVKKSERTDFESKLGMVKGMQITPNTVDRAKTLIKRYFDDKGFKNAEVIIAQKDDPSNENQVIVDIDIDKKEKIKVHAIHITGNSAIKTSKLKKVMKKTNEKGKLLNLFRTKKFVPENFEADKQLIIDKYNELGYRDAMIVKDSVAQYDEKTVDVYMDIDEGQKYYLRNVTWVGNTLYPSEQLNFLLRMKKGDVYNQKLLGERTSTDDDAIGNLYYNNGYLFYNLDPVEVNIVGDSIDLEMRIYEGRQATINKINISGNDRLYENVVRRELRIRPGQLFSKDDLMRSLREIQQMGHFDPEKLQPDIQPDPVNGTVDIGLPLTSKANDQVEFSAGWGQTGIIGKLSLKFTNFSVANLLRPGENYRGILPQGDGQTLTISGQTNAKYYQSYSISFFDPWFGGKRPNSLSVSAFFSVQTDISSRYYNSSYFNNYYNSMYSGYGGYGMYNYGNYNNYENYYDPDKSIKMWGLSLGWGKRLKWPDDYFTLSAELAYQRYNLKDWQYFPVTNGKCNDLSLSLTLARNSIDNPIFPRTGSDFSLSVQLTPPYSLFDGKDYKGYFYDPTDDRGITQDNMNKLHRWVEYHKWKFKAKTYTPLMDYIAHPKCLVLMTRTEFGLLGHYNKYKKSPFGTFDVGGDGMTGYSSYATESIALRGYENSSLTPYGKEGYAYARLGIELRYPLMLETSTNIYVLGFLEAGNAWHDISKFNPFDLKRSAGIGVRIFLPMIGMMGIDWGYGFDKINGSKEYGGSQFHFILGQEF",
  "assay": "affinity purification with mass spectrometry",
  "settings": "partners not purified",
  "data": [
    {"binder": "BtBamF (Bt4367) (natural protein, UniProt Q89ZL0 23-431, looked up, O-glycosylation (glycan on Ser75)) QNNTNSPYTRYGYGDLSDQSFGNSKAMGGIAFGLRDGAQINPTNPASYTAIDSLTFLFEGGVSLQNMNISGGGLKLNAKNASFDYLAMQFRLAPWMAMSVGLLPYSNVGYTVSDSQTTDNGLAYSRSFTGDGGLHQMYVGAGVKVLKNLSVGVNASYFWGDITRTRGMFYPGTSSYDSYQRKMVTSISDYKLDFGAQYTQALNKKSSLTIGAVYSPKHKLNNDYTSIVIMGASSSSYGTEYKDVLDATFELPNTFGVGFTYNYDKRLTVGADYSLQQWSKTNFGVVTSDENVRQDFNETFTYCDRTKISVGAEYIPNLIGRSYFAHIKYRLGAYYTTPYYKIDGKKASREYGVTAGFGLPVPRSRSILSISGQFVRVKGLETNMVNENIFRVSIGLTFNERWFFKRRVE", "values": [
      {"measurement": "binding result", "result": "binds"}
    ]}
  ]
}
